{"source": "patent US5731348A", "about": "“Alkylcarboxy amino acids-modulators of the kainate receptor” (Bearsden Bio, Inc., priority 1996, dated 1998)", "key": {"[1]": {"test_system": "rat GluR4 (AMPA) receptors", "details": "up to 200 μM; 300 μM AMPA; rat GluR4 in HEK 293", "description": "(§1) Tissue slice or whole cell electrophysiology as described by Yamada (Neurophysiology, 1994 and references therein) is used to measure agonist, partial agonist, or antagonist properties of drugs for glutamate receptors. […] This is distinct from the binding affinity."}, "rat GluR6 KA receptors": {"test_system": "rat GluR6 KA receptors", "details": "10 nM to 20 μM; 300 mM KA (so in the source); rat GluR6 in HEK 293", "description": "as §1"}}, "note": "“Also recorded” adds a separate entry of the source."}
{"smiles": "C[C@H](C[C@H](N)C(=O)O)C(=O)O", "note": "[compound 8, (2S,4R)-4-Methyl Glutamic Acid]", "values": [{"measurement": "effect on AMPA evoked currents", "setting": "[1]", "result": "no effect on currents evoked by 300 μM AMPA; also recorded: did not inhibit 300 μM AMPA currents"}, {"measurement": "block of KA evoked current", "setting": "rat GluR6 KA receptors", "result": "completely and reversibly blocked"}]}
